Results from patent publication US7247440B2, “Method of screening preventives or remedies for obesity” (Takeda Pharmaceutical Company Limited, priority 2001, dated 2007).

What was measured:
GPR7 [1] = molecular target: T1, GPR7 (Homo sapiens, UniProt P48145); experiment: Receptor binding test using [125I-Tyr10]-hGPR8L (1-23) and human GPR7-expressed CHO cell membrane fraction; set-up: expressed in transfected cells; host or cells: membrane fraction of CHO dhfr- cells transfected with pAKKO-Human GPR7; details: for binding inhibition of [125I-Tyr10]-hGPR8L (1-23) / affinity (in words): human GPR7-expressed CHO cell membrane fraction
T1 sequence (P48145 1-328): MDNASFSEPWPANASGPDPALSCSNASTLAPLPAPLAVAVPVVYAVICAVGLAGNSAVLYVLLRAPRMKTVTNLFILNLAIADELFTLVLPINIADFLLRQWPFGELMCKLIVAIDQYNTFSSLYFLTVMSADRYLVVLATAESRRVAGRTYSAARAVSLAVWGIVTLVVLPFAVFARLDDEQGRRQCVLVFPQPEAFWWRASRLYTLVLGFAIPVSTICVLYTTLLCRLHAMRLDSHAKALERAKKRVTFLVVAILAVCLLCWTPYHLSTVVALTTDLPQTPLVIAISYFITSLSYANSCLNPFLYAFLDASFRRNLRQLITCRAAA
Experimental: Receptor binding test was carried out using [^125I-Tyr^10]-hGPR8L (1-23) prepared as described in REFERENCE EXAMPLE 42 and the cell membrane fraction prepared from the human GPR7-expressed CHO cells.
To 1×10^8 of the human GPR7-expressed CHO cells was added 10 ml of a homogenate buffer (10 mM NaHCO3, 5 mM EDTA (ethylenediaminetetraacetic acid), 0.5 mM PMSF (phenylmethanesulfonyl fluoride), 1 μg/ml pepstatin, 4 μg/ml E64 and 20 μg/ml leupeptin). The mixture was homogenized by using Polytron (12,000 rpm, 1 min.). The cell homogenate was centrifuged (1,000 g, 15 mins.) to obtain the supernatant. Next, the supernatant was subjected to ultracentrifugation (Beckman type 30 rotor, 30,000 rpm, 1 hour). The resulting precipitate was used as a human GPR7-expressed CHO cell membrane fraction.
The thus prepared cell membrane fraction was diluted in various concentrations with an assay buffer (25 mM Tris-HCl, 5 mM EDTA, 0.05% CHAPS (3-[(3-choramidopropyl)dimethylammonio]-1-propanesulfonate), 0.1% BSA, 0.5 mM PMSF, 1 μg/ml pepstatin, 20 μg/ml leupeptin and 4 μg/ml E-64, pH 7.4). Then, a 200 μl aliquot of the dilution was dispensed into a propylene-made testing tube (Falcon 2053). In order to assay for the total binding, 2 μl of DMSO and 2 μl of 8 nM [^125I-Tyr^10]-hGPR8L (1-23) was added to the membrane fraction solution. Also, the non-specific binding was assayed by adding 2 μl of a DMSO solution of 1 mM hGPR8L (1-23) and 2 μl of 8 nM [^125I-Tyr^10]-hGPR8L (1-23) to the membrane fraction solution. After reacting at 25° C. for 75 minutes, the reaction solution was suction-filtrated through a polyethyleneimine-treated Whatman glass filter (GF-F), and the filter was washed twice with ˜1.5 ml of a wash buffer (25 mM Tris-HCl, 5 mM EDTA, 0.05% CHAPS, 0.1% BSA, pH 7.4). After the filtration, the residual radioactivity remained on the filter paper was measured with a γ-counter, and the specific binding was estimated by subtracting the non-specific binding from the total binding. […]

GPR7 [2] = molecular target: T1, GPR7; experiment: GTPγS-binding promoting activity on GPR7-expressed CHO cell membrane fraction; format: biochemical; set-up: expressed in transfected cells; host or cells: CHO dhfr- cells, plasmid pAKKO-Human GPR7 (high-expression clones 7, 8, 14)
Experimental: The [^35S]-guanosine 5′-(γ-thio)triphosphate (GTPγS) binding promoting activity on the GPR7-expressed CHO cell membrane fraction was assayed by the following procedures.
The GPR7-expressed CHO cell membrane fraction prepared by the method described in EXAMPLE 2 was diluted with a membrane dilution buffer (50 mM Tris-hydrochloride buffer (pH 7.4), 5 mM MgCl2, 150 mM NaCl, 1 μM GDP and 0.1% BSA) to prepare a cell membrane fraction solution for assay having a protein level of 30 μg/ml. To 200 μl of the cell membrane fraction solution for assay were added 2 μl of 50 nM [^35S]-guanosine 5′-(γ-thio)triphosphate (NEN Co.) and 2 μl of a sample solution in DMSO, which was adjusted to an appropriate concentration. The resulting mixture was kept warm at 25° C. for an hour. The mixture was filtrated through a filter. After the filter was washed twice with 1.5 ml of a wash buffer (50 mM Tris-hydrochloride buffer (pH 7.4), 5 mM MgCl2, 1 mM EDTA and 0.1% BSA), radioactivity of the filter was measured with a liquid scintillation counter.
Following the procedures described in 1) above, hGPR8L (1-23) or hGPR8L (1-30) were given to the GPR7-expressed CHO cell membrane fraction in various concentrations to assay for the GTPγS-binding promoting activity. […]

binding inhibition of [125I-Tyr10]-hGPR8L (1-23) / affinity (in words) (GPR7 [1])	EC50 (GPR7 [2]) [nM]	IC50 (GPR7 [1]; inhibition of [125I-Tyr10]-hGPR8L (1-23) binding, GPR7-expressed CHO cell membrane fraction) [nM]	Compound
high affinity	0.74	–	CSCC[C@H](NC(=O)[C@H](CC(C)C)NC(=O)[C@H](CC(C)C)NC(=O)CNC(=O)[C@H](C)NC(=O)[C@H](C)NC(=O)[C@H](CCCNC(=N)N)NC(=O)CNC(=O)[C@@H](NC(=O)[C@@H](NC(=O)[C@H](Cc1c[nH]cn1)NC(=O)[C@H](Cc1ccc(O)cc1)NC(=O)[C@H](CCCNC(=N)N)NC(=O)[C@@H]1CCCN1C(=O)[C@H](CO)NC(=O)[C@H](C)NC(=O)[C@@H](NC(=O)[C@H](Cc1c[nH]cn1)NC(=O)[C@H](CCCCN)NC(=O)[C@H](Cc1ccc(O)cc1)NC(=O)[C@@H](N)Cc1c[nH]c2ccccc12)C(C)C)[C@@H](C)O)C(C)C)C(=O)NCC(=O)N[C@@H](CC(C)C)C(=O)O [hGPR8L(1–23)]
high affinity	0.67	0.025	CSCC[C@H](NC(=O)[C@H](CC(C)C)NC(=O)[C@H](CC(C)C)NC(=O)CNC(=O)[C@H](C)NC(=O)[C@H](C)NC(=O)[C@H](CCCNC(=N)N)NC(=O)CNC(=O)[C@@H](NC(=O)[C@@H](NC(=O)[C@H](Cc1c[nH]cn1)NC(=O)[C@H](Cc1ccc(O)cc1)NC(=O)[C@H](CCCNC(=N)N)NC(=O)[C@@H]1CCCN1C(=O)[C@H](CO)NC(=O)[C@H](C)NC(=O)[C@@H](NC(=O)[C@H](Cc1c[nH]cn1)NC(=O)[C@H](CCCCN)NC(=O)[C@H](Cc1ccc(O)cc1)NC(=O)[C@@H](N)Cc1c[nH]c2ccccc12)C(C)C)[C@@H](C)O)C(C)C)C(=O)NCC(=O)N[C@@H](CC(C)C)C(=O)N[C@@H](CCCNC(=N)N)C(=O)N[C@@H](CCCNC(=N)N)C(=O)N[C@@H](CO)C(=O)N1CCC[C@H]1C(=O)N[C@@H](Cc1ccc(O)cc1)C(=O)N[C@@H](CC(C)C)C(=O)N[C@@H](Cc1c[nH]c2ccccc12)C(=O)O [hGPR8L(1–30)]
